# Vapor pressure values, as collected for the OPERA models

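The OPERA project collected these measurements from public sources as training and test data for property models. One number stands for a compound and property, with no spread given. Conditions of the individual experiments are not part of the data. A value may pool stereoisomers or salt forms, and the file does not say which form was measured. Some upstream entries may be estimates or bounds without being marked so.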

Vapor pressure is log10 of mmHg; the set covers 15 to 30 °C, mostly 20 to 25 °C.
The databases behind each value are named after "via".

compound,log VP (log10 mmHg),via
CCOP(=S)(Oc1ccc(C#N)cc1)c1ccccc1 (stereo not given),-5.917,OCHEM
Cc1ccccc1OP(=O)(Oc1ccccc1C)Oc1ccccc1C,-4.836,"OCHEM, PubChem"
O=[N+]([O-])c1ccc(CBr)cc1,-3.01,OCHEM
O=c1[n-]c(=O)n(Cl)c(=O)n1Cl.[Na+],-4.347,"OFMPub, eChemPortal"
CNC(=N[N+](=O)[O-])NCC1CCOC1 (stereo not given),-7.893,"OCHEM, PubChem, eChemPortal"
O=[N+]([O-])c1ccc2ccccc2c1,-3.62,PubChem
CC(C)=CC1C(C(=O)OCc2ccc(C)cc2C)C1(C)C (stereo not given),-4.764,OCHEM
O=C(O)C(F)(F)OC1(F)OC(F)(F)OC1(F)OC(F)(F)F (stereo not given),-0.815,eChemPortal
CCOP(=S)(OCC)Oc1ccc(Cl)cc1Cl,-3.252,"OCHEM, PubChem"
CC(C)(C)OOC(C)(C)c1cccc(C(C)(C)OOC(C)(C)C)c1,-6.046,eChemPortal
CC1CCC(=O)O1 (stereo not given),-0.413,OCHEM
C1CC2OC2CC1C1CO1 (stereo not given),-1,PubChem
CCCC(=O)Cl,1.477,"PubChem, eChemPortal"
Clc1cc(Cl)c(-c2c(Cl)c(Cl)c(Cl)c(Cl)c2Cl)cc1Cl,-5.996,OCHEM
CC(C)CP(=S)([S-])CC(C)C.[Na+],-3.059,eChemPortal
CC(=O)OCC1=C(C(=O)O)N2C(=O)[C@@H](N)[C@H]2SC1,-6.718,eChemPortal
CCCSP(=S)(OCC)Oc1ccc(Cl)cc1Cl (stereo not given),-5.648,OCHEM
CS(=O)(=O)O.NC(=O)[C@@H]1C[C@@H]2C[C@@H]2N1,-8.253,eChemPortal
Nc1ccc([N+](=O)[O-])cc1Cl,-5.462,PubChem
CCCCC(C#N)(Cn1cncn1)c1ccc(Cl)cc1 (stereo not given),-5.796,"OCHEM, PubChem"
Cc1cc(C)cc(C(=O)N(NC(=O)c2ccc3c(c2C)CCCO3)C(C)(C)C)c1,-10.52,OCHEM
CNC1CCCCC1,0.574,eChemPortal
CCC1(C(=O)NC(C)c2ccc(Cl)cc2)C(C)C1(Cl)Cl (stereo not given),-7.726,OCHEM
CC(=O)CC(c1ccc(Cl)cc1)c1c(O)c2ccccc2oc1=O (stereo not given),-7.011,OCHEM
CCOC(=O)C(Cl)C(C)=O (stereo not given),-0.278,eChemPortal
CO[C@]12C[C@@H](CO)CN(C)[C@@H]1Cc1c[nH]c3cccc2c13,-4.736,eChemPortal
CC(C)(O)C(Cl)(Cl)Cl,1.085,eChemPortal
N#C/C=C/c1ccccc1,-2.046,eChemPortal
CCCCC(=O)Cl,0.943,eChemPortal
O=C(O)CCCCCNc1nc(NCCCCCC(=O)O)nc(NCCCCCC(=O)O)n1.OCCN(CCO)CCO.OCCN(CCO)CCO.OCCN(CCO)CCO,-5.445,eChemPortal
COc1ccc([N+](=O)[O-])cc1[O-].[Na+],-7.001,OCHEM
CCCCOC(=O)CCC(C)(OOC(C)(C)C)OOC(C)(C)C,-3.401,eChemPortal
OCCCC(F)(F)C(F)(F)F,-0.084,eChemPortal
CC1(C(=O)Cl)CCCCC1,-0.091,eChemPortal
COC(C(F)(F)F)(C(F)(F)F)C(F)(F)F,2.452,ICF
O=C(C(Cl)(Cl)Cl)C(Cl)(Cl)Cl,-0.775,"PubChem, eChemPortal"
O=C(O)CCCCCCCCCCC(=O)O.OCCN(CCO)CCO.OCCN(CCO)CCO,-4.524,eChemPortal
Cc1ccc2nc(-c3ccc(/N=N/C4C(=O)NC(=O)NC4=O)cc3)sc2c1S(=O)(=O)O.OCCN(CCO)CCO,-3.415,eChemPortal
CSc1ccc(C(=O)C(C)(C)N2CCOCC2)cc1,-5.824,eChemPortal
CCCCCCOP(=O)(OCCCCCC)OCCCCCC,-5.252,eChemPortal
O=C(Cl)C(=O)Cl,2.176,eChemPortal
FC(C(F)C(F)(F)C(F)(F)F)C(F)(F)F (stereo not given),2.354,"PubChem, eChemPortal"
Clc1cc(Cl)c(Cl)c(-c2ccccc2)c1Cl,-3.943,OCHEM
CC(C)([S-])C(N)C(=O)[O-].[Pb+2],-10.85,eChemPortal
ClCCc1ccccc1,0.227,OCHEM
CC(C)COP(=S)(OCC(C)C)SCC(C)C(=O)O (stereo not given),-6.161,eChemPortal
CC(Oc1ccc(Oc2ncc(C(F)(F)F)cc2Cl)cc1)C(=O)O (stereo not given),-8.001,OCHEM
O=C(Cl)c1cccc(C(=O)Cl)c1,-2.664,eChemPortal
O=C(Cc1ccccc1)OCCc1ccccc1,-1.173,eChemPortal
S=C=Nc1ccccc1,0.176,OCHEM

From the experimental data distributed with OPERA 2.9.